Among the data in ChEMBL document CHEMBL5331145, “Discovery of a Novel Bifunctional Steroid Analog, YXG-158, as an Androgen Receptor Degrader and CYP17A1 Inhibitor for the Treatment of Enzalutamide-Resistant Prostate Cancer” (J Med Chem, 2023) are Ratio and Activity values, retold here.

The chains behind the UniProt entries cited, without tags or fusion partners.
UniProt P10275, whole entry F877L: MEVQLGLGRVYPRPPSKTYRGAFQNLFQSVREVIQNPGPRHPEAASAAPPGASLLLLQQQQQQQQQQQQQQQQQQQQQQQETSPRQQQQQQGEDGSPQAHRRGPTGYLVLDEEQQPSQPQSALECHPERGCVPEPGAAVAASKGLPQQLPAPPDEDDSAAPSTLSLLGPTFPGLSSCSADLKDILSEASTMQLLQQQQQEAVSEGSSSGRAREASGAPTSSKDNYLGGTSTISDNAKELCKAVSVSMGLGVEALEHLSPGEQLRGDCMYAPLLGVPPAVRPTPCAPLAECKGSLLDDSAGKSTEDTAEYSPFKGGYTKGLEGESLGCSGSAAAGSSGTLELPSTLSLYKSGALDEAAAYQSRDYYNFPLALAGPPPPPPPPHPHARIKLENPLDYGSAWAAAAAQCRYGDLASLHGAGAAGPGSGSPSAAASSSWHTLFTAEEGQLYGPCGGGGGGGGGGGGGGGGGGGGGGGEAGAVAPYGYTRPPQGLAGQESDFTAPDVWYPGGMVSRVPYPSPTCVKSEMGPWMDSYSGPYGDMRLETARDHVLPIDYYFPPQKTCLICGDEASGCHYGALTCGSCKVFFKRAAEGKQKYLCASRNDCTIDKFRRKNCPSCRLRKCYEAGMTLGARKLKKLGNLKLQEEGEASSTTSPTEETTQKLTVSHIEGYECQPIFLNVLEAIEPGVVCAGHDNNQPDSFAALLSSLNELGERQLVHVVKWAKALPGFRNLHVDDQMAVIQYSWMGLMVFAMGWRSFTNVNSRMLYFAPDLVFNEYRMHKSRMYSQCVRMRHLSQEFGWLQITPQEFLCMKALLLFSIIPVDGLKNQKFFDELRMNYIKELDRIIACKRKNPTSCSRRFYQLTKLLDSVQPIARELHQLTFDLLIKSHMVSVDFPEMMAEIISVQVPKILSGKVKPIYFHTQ

The target in assay [1] is Androgen receptor (Homo sapiens, UniProt P10275). The experiment in a line: Potency index, ratio of galeterone DC50 to test compound DC50 for induction of androgen receptor degradation in human LNCaP cells. In kind it is cell-based.
Assay [2] concerns Androgen receptor (Homo sapiens), P10275 [F877L]. The assay can be described thus: Antagonist activity at androgen receptor F876L mutant expressed in HEK293 cells assessed as reduction in DHT-induced transcriptional activation of androgen receptor incubated for 24 hrs by Steady-Glo assay relative to control. The class given is cell-based. Also noted: scale not given: the % may be the effect or the level left. Particulars: filed as antagonist.

SMILES strings stand for the structures.

Consider `Cc1cn(C2=CCC3C4CC=C5C[C@@H](NC(=O)c6ccncc6)CC[C@]5(C)C4CC[C@]23C)cn1` (some centres not stated), for which, in assay [1], the Ratio was 2.5. Moreover, in assay [2], the Activity worked out at 117%.
